## AlphaSeq binding of Ab-95 light chain variants to a spike HR2 peptide

From the AlphaSeq antibody data of Engelhart et al. 2022 (doi:10.1038/s41597-022-01779-4), copy in the FLAb collection.

Target peptide (SARS-CoV-2 spike, HR2 region): PDVDLGDISGINAS

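The parent was found by panning a naive human phage display library on the peptide. Library AAYL52 holds single substitutions and randomly drawn double and triple substitutions in the CDRs. AlphaSeq pools MATa yeast showing the antibodies with MATalpha yeast showing the peptide. Pairs that bind mate more often; barcode pairs of the diploids are counted by sequencing. A regression on co-assayed BCL2-family reference pairs converts the normalised counts of each replicate to an apparent Kd. Mating was done three times.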

Parent scFv Ab-95: VH joined to VL by a 15-residue (Gly4Ser)3 linker. Changes lie in the light chain CDRs alone.
VH: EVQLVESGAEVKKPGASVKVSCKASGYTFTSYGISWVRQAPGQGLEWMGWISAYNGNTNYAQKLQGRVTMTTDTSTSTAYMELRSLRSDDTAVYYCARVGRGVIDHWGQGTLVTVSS
VL: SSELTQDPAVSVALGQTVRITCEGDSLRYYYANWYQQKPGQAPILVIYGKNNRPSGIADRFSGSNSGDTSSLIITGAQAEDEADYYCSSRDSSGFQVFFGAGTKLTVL

Substitutions are numbered in sequence along the VL above, starting at 1 (not Kabat). Every variant below is changed at V97 of the VL (sequential numbering). The read-out is the apparent dissociation constant on a log10 scale (nM): the lower, the stronger. Replicates are averaged; those with no signal do not enter the mean. A pair that was not seen in that replicate is written "nd"; this usually means weak binding, but a binder can also be missed. For reference, the parent read 2.31 as the reference entry and 2.25 as a member of this library.

With R28L/S89Y/V97N the result was 3.44, nd, nd (controls 2 of 9). The variant Y29H/S88D/V97T gave nd, nd, nd (controls 0 of 9). The variant S88A/F95Q/V97K gave 2.64, 2.85, 2.65 (mean 2.71; controls 2 of 9). With A32V/F95R/V97R the result was nd, nd, nd (controls 3 of 9). The variant L27M/D91F/V97T showed 3.75, 4.08, 3.21 (mean 3.68; controls 1 of 9). With E23M/N52H/V97T the result was 4.66, 5.00, nd (mean 4.83; controls 5 of 9). With G49I/S89F/V97I the result was 3.06, 4.24, nd (mean 3.65; controls 4 of 9).

With D25L/Q96N/V97Y the result was 4.63, 2.86, 3.88 (mean 3.79; controls 5 of 9). The variant S88K/V97L showed 1.94, 1.92, 2.37 (mean 2.08; controls 3 of 9). For N52Q/S92Y/V97H, the assay gave 2.60, 2.88, 2.56 (mean 2.68; controls 2 of 9). The variant S26T/Q96E/V97W showed 3.86, 5.81, nd (mean 4.83; controls 5 of 9). With N51A/F95P/V97M the result was 5.34, nd, nd (controls 0 of 9). The variant N51G/V97K/F98H showed 3.59, nd, 2.92 (mean 3.26; controls 1 of 9). For D25P/P54N/V97P, the assay gave nd, nd, nd (controls 1 of 9).

With R90Q/V97D the result was nd, 3.46, nd (controls 3 of 9). For G49S/Q96C/V97Q, the assay gave 3.56, 3.16, 4.30 (mean 3.67; controls 4 of 9). The variant S92H/S93F/V97M gave 1.97, 2.35, 2.09 (mean 2.14; controls 1 of 9). With G24D/V97A the result was 3.83, 3.61, nd (mean 3.72; controls 4 of 9). The variant N51C/R90V/V97S gave 3.95, nd, 3.62 (mean 3.78; controls 2 of 9). For S26E/P54Q/V97P, the assay gave 1.71, 1.76, 2.74 (mean 2.07; controls 2 of 9). The variant R28S/F95V/V97F gave 2.75, 5.70, 2.60 (mean 3.68; controls 4 of 9).

The variant A32L/K50L/V97M showed nd, nd, nd (controls 1 of 9). The variant N52V/G94K/V97H gave nd, nd, nd (controls 2 of 9). The variant S26A/Y31F/V97M gave 3.58, 3.74, 4.54 (mean 3.95; controls 2 of 9). The variant D91E/G94L/V97A showed 4.26, 3.44, nd (mean 3.85; controls 2 of 9). The variant Y29S/V97W gave 2.17, 2.20, 2.01 (mean 2.12; controls 4 of 9). The variant D25R/S89G/V97A gave 2.18, 2.68, 2.25 (mean 2.37; controls 1 of 9). For G24E/R90N/V97M, the assay gave nd, 4.16, nd (controls 2 of 9).

With R28D/D91C/V97E the result was nd, nd, nd (controls 2 of 9). The variant Y29S/Y30E/V97H showed 1.93, 1.49, 1.27 (mean 1.56; controls 0 of 9). The variant R28F/V97I gave 2.95, 3.24, 2.97 (mean 3.06; controls 4 of 9).

Picked from the list: the 2 lowest averages where every replicate gave a value.

The variant Y29S/Y30E/V97H gave 1.93, 1.49, 1.27 (mean 1.56; controls 0 of 9).
The variant S26E/P54Q/V97P gave 1.71, 1.76, 2.74 (mean 2.07; controls 2 of 9).

As a blank, each scFv also met three strains without target: over library AAYL52, 28% of these pairings were detected, typically at 3.91 and seldom below 2.90. Also given: how often the same scFv was detected with the empty control strains.